# Apparent affinities of Ab-14 variants for a coronavirus HR2 peptide

The target is the same throughout: PDVDLGDISGINAS, from the HR2 region of SARS-CoV-2 spike.

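Phage display of a naive human antibody library on the peptide gave the parent. The library (AAYL49) carries one to three amino acid substitutions per variant, with no insertions or deletions. The assay is AlphaSeq: two haploid yeast populations carry antibody and antigen on their surface. Mating (16 h, 30 °C) was followed by selection of diploids and sequencing of their barcodes. Each replicate has its own calibration line, from reference interactions of the BCL2 family. Each pool was mated in three replicate cultures.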

Parent: Ab-14, a human scFv built as VH, the linker GGGGSGGGGSGGGGS, VL. Only the CDRs of the heavy chain vary.
VH: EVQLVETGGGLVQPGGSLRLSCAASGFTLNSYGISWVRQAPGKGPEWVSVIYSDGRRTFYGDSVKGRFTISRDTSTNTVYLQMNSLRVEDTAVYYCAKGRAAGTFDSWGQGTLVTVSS
VL: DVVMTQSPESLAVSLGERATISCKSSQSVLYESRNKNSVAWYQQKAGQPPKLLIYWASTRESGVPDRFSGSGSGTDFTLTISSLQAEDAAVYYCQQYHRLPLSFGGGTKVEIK

Variants are written as CDR1, CDR2 and CDR3 of the heavy chain (limits as in the source). Parent: GFTLNSYGIS, VIYSDGRRTFYGDSVK, GRAAGTFDS. The Kd shown is the geometric mean over detected replicates; a lower Kd is a better binder. A pair that was not seen in any replicate is written "no signal"; this usually means weak binding, but a binder can also be missed. Nonspecific signal, from three strains lacking the peptide, appeared in 15% of pairings of library AAYL49, centred on 11 µM (5% of these signals below 680 nM); values are not corrected for it. Also given: how often the same scFv was detected with the empty control strains.

CDR-H1 | CDR-H2 | CDR-H3 | Kd | seen in | control signals
GFTLNSYGIS | VIYSIRRDTFYGDSVK | GRAAGTFDS | no signal | 0/3 | 0/9
GFTLNSYGCH | VIYSDGRRYFYGDSVK | GRAAGTFDS | no signal | 0/3 | 0/9
GFTLNSYGIS | VIYSDGRRTFQMDSVK | LRAAGTFDS | no signal | 0/3 | 0/9
GFTLNSYGIS | VIYSDGIFTFYGDSVK | GRAAMTFDS | 59 µM | 1/3 | 0/9
GFTLNSYGIS | VIYCDGRRTFYGDSVK | GWTAGTFDS | 1.6 µM | 2/3 | 0/9
DFTLNSYGIS | VIYSDKRRTFYGDSVY | GRAAGTFDS | no signal | 0/3 | 0/9
GFTLNSYSIS | VIYSDGRRRVYGDSVK | GRAAGTFDS | 1.3 µM | 1/3 | 4/9
GFTLTSYGIS | VIYSDGCRTFYGDSVK | GRAAGTFDS | 2.0 µM | 3/3 | 3/9
GFTLNSEGIS | VIYSDGRRGFYGDSVK | GRAAGTFDS | no signal | 0/3 | 2/9
GFTLNSYGIS | RIYSPGRRTFYGDSVK | GCAAGTFDS | no signal | 0/3 | 0/9
GFTLFSYGIS | VRYSDGRRTFYGDHVK | GRAAGTFDS | no signal | 0/3 | 0/9
GFTLERYGIS | VIYSDGRRTFYGDSMK | GRAAGTFDS | 62 nM | 3/3 | 2/9
GWTLNSYQIS | VIYSDGRRTFYGDSVK | GRAAGTFDK | 72 µM | 1/3 | 4/9
GFTLNSYGIS | RIYSDGRRTQYGDSVK | GRAAVTFDS | 350 µM | 1/3 | 0/9
GFTLNSYGIS | VIYSDGRRTFYGDNVK | HRAAGTFDI | 3.3 nM | 3/3 | 1/9
GFTLNSYGWS | VIYSDGRMTFYGDSVK | GRAAGTFDS | no signal | 0/3 | 2/9
GFTLMSYGIS | VIYSDGRRQFYGDSVK | GRAAGPFDS | 4.0 µM | 1/3 | 2/9
GFTVNSYGIS | VIYSDDRRTFYGDSVK | LRAAGTFDS | 93 µM | 1/3 | 0/9
GFTLNSYGIS | VIYSDGRRTFYGDSVK | SRAWTTFDS | 8.4 nM | 3/3 | 0/9
GFTLNSQGIS | VIYSDGRRTFYGDDVK | GRAAGAFDS | 390 nM | 3/3 | 2/9
GFTLNSEGIS | VIYSDSRRTFYYDSVK | GRAAGTFDS | no signal | 0/3 | 2/9
GFTLNWYGIS | NIYSDGRRTFYGDSVK | GRAAGFFDS | 7.9 µM | 1/3 | 6/9
GFTLNSYGIS | VIYSDGLRTFYGDSVK | GRAARQFDS | 27 nM | 3/3 | 3/9
PFTLNSYGIK | VIYSDGRVTFYGDSVK | GRAAGTFDS | 590 µM | 1/3 | 2/9
LFTLNSYGIS | VIYSDGRRMFYGDSVK | GRAAGTFDS | 4.8 µM | 3/3 | 6/9
GFTLNSYGIS | VVYSDGRRTFYEDHVK | GRAAGTFDS | no signal | 0/3 | 0/9
GFTLNSYGIS | VIYSDRRMTFYGDSVK | TRAAGTFDS | 420 µM | 1/3 | 0/9
GFTLNSYGIS | VIYEDGRRTFYGDSVK | GRDAGHFDS | no signal | 0/3 | 0/9
GFTLNSYGIS | YIYSDGRRTFYKDSVK | TRAAGTFDS | 6.9 µM | 1/3 | 3/9
GFTLNSYGYS | KIQSDGRRTFYGDSVK | GRAAGTFDS | no signal | 0/3 | 1/9
GFTLNSYGIS | VIWSPGRRTFYGDSVK | GRAAGTDDS | no signal | 0/3 | 0/9
GFTGNSYAIS | VIYSDGTRTFYGDSVK | GRAAGTFDS | 22 µM | 2/3 | 3/9
GFTLNSYGLS | CIYSDGRRTFYGDSVK | GRVAGTFDS | 34 µM | 2/3 | 2/9

Continued, with the values leading:

Kd | seen in | control signals | CDR-H1 | CDR-H2 | CDR-H3
no signal | 0/3 | 0/9 | GFTLNSYGTS | VIYSDGRRTFYGDSVK | GRAWGQFDS
no signal | 0/3 | 0/9 | GFTLNSYGIS | VIYSDGRRTFYGDKVK | GRAAVTFDR
no signal | 0/3 | 2/9 | GFTLNSWGIS | VIYSDGRRTFYGDSVK | HRAAGTFDS
660 nM | 2/3 | 2/9 | GFTLNSYAIG | VIYSDGRRTVYGDSVK | GRAAGTFDS
17 µM | 2/3 | 3/9 | VFTLNSYGIS | VIYSDGRRTFYGASVK | GRAAGTFDA
24 µM | 3/3 | 4/9 | GFELNSKGIS | VIYSDGRRTFYTDSVK | GRAAGTFDS
170 µM | 2/3 | 3/9 | GFTLNSYGIS | PIYSYGRRTFYGDNVK | GRAAGTFDS
no signal | 0/3 | 0/9 | GFTLNSYGIS | VIYSDGRRTFNLCSVK | GRAAGTFDS
no signal | 0/3 | 1/9 | GFTLNSYGIS | VIYFHGRRTFYGDSVK | GRAAGTFDW
4.7 µM | 1/3 | 2/9 | GFTLNSYGIS | VVESDGRRTFYGDSVK | GRAAGTFCS
no signal | 0/3 | 2/9 | GFTRNSYGIS | VDYSDGRRTFYHDSVK | GRAAGTFDS
no signal | 0/3 | 0/9 | GFTLNSYGIS | VFKMDGRRTFYGDSVK | GRAAGTFDS
190 µM | 1/3 | 0/9 | GFTLNFYGIS | VIYSDGRRLFYGDSDK | GRAAGTFDS
530 nM | 1/3 | 1/9 | GFTLRSYGVS | VIYSDGRRTFYGDSVK | GRAAGPFDS
2.3 nM | 3/3 | 1/9 | GFTLNSYGIS | VIYSDGRRTFYGDSVK | GRAAGCFPW
79 µM | 2/3 | 2/9 | GFTLNSYGIS | VIYSDYKRTFYGSSVK | GRAAGTFDS
no signal | 0/3 | 0/9 | GFALNSYGIS | DIYSDGRRTFYGDSVK | GRAGGTFDS
950 nM | 1/3 | 0/9 | GFTLNSKGIS | VIYSDGRRTFYGDSVH | GRAAGTIDS
31 nM | 2/3 | 0/9 | GFTLNSYGIS | VIYSDGRRHFYGDSVK | GRAYGTFDS
no signal | 0/3 | 0/9 | GFTLNSYGIS | VIYMDGPRTFYGDSVK | GRQAGTFDS
no signal | 0/3 | 2/9 | GHTLNLYGIS | VCYSDGRRTFYGDSVK | GRAAGTFDS
60 nM | 3/3 | 0/9 | GFALNSYGIS | VIYSDGRRTFYGRSVK | GRAAGTFDS
320 µM | 1/3 | 2/9 | GFTLNSYGIS | VIYSDGRRTFYGDSVK | GSAAGTEDS
4.1 µM | 3/3 | 2/9 | GFVLNSYGIS | VIYSDGRRVFYGDSVM | GRAAGTFDS
no signal | 0/3 | 0/9 | GFTLNSYGIS | PIYSDGRRTMYGDSVK | GRAAGTFDN
710 nM | 3/3 | 2/9 | GFTLTSYGIS | VIYSDGRRTFYGDSVR | GRASGTFDS
2.3 µM | 1/3 | 7/9 | GFTLECYGRS | VIYSDGRRTFYGDSVK | GRAAGTFDS
no signal | 0/3 | 0/9 | GFRSNSYGIN | VIYSDGRRTFYGDSVK | GRAAGTFDS
17 µM | 1/3 | 0/9 | GFTLNSYGFS | VIYSAGRRTFYGDSVK | GWAAGTFDS
28 µM | 1/3 | 2/9 | GFTLNGYGIS | VIYSDGSRTFYGDSNK | GRAAGTFDS
no signal | 0/3 | 0/9 | GFTLNSYGIS | VIYSDMRRCFYGDSEK | GRAAGTFDS
150 nM | 3/3 | 2/9 | GFTLNSYGIS | VIYPDGRRTFYGDSVK | GRAAGDFRS
no signal | 0/3 | 0/9 | GFRMNSYGIS | VIYSDGRRTFYGDSVK | GRDAGTFDS
no signal | 0/3 | 1/9 | EFTLNSYGIS | VICSDGRRTFYGDSVK | GRAAGTFDS

Excerpt, the final 6 entries:

CDR-H1	CDR-H2	CDR-H3	Kd	seen in	control signals
GFTLNSYGFS	VIYSAGRRTFYGDSVK	GWAAGTFDS	17 µM	1/3	0/9
GFTLNGYGIS	VIYSDGSRTFYGDSNK	GRAAGTFDS	28 µM	1/3	2/9
GFTLNSYGIS	VIYSDMRRCFYGDSEK	GRAAGTFDS	no signal	0/3	0/9
GFTLNSYGIS	VIYPDGRRTFYGDSVK	GRAAGDFRS	150 nM	3/3	2/9
GFRMNSYGIS	VIYSDGRRTFYGDSVK	GRDAGTFDS	no signal	0/3	0/9
EFTLNSYGIS	VICSDGRRTFYGDSVK	GRAAGTFDS	no signal	0/3	1/9

The measurements come from Engelhart et al. 2022 (doi:10.1038/s41597-022-01779-4) through the FLAb antibody collection.